Measurements reported in publication PMC9802239 (Journal of Molecular Cell Biology, 2022).

Target: 6x His-tagged Aurora B (full length) (UniProt Q96GD4)
Test: pull-down

binding result: binds
B1: GST-CENP-R (natural protein, human, UniProt Q13352 1-177, looked up)
chain: MPVKRSLKLDGLLEENSFDPSKITRKKSVITYSPTTGTCQMSLFASPTSSEEQKHRNGLSNEKRKKLNHPSLTESKESTTKDNDEFMMLLSKVEKLSEEIMEIMQNLSSIQALEGSRELENLIGISCASHFLKREMQKTKELMTKVNKQKLFEKSTGLPHKASRHLDSYEFLKAILN
